According to US10471059B2, “Compositions and methods of using tyrosine kinase inhibitors” (YALE UNIVERSITY, priority 2015, dated 2019):

Tested on: Mouse embryonic fibroblasts (MEFs) from Ptpn11^D61G/+ mice
Conditions: 18 hr

Row | Structure (SMILES) | PZR tyrosyl phosphorylation (MEFs from Ptpn11D61G/+ mice) | c-Src, ERK1/2 and PZR tyrosyl phosphorylation (MEFs from NS mice) | PZR/Shp2 complex formation (MEFs from NS mice, immunoprecipitation) | Raf-1, MEK1, JNK and Akt phosphorylation (NS-derived MEFs)
1 | Cc1ccc(NC(=O)c2ccc(CN3CCN(C)CC3)cc2)cc1Nc1nccc(-c2cccnc2)n1 [STI-571] | ineffective | – | – | –
2 | Cc1nc(Nc2ncc(C(=O)Nc3c(C)cccc3Cl)s2)cc(N2CCN(CCO)CC2)n1.O [Dasatinib, N-(2-chloro-6-methylphenyl)-2-[[6-[4-(2-hydroxyethyl)-1-piperazinyl]-2-methyl-4-pyrimidinyl]amino]-5-thiazole carboxamide monohydrate] | – | blocked | disruption | inhibited
